The test relates to β3 -AR. The class given is in vivo, mouse. The note with it: β3 -AR-deficient mice; fifteen minutes after injection; 10 mg/ml. How it is done:
Mice that received norepinephrine were anesthetized with pentobarbital for the study.
Oxygen consumption was measured as described by Lowell et al. (supra) in twelve-week-old control, β3 -AR-deficient male mice, and β3 -AR-deficient knockout mice expressing the human β3-AR gene.

Drawing on patent publication US5789654A, “Transgenic animals deficient in endogenous β3 -adrenergic receptor and uses thereof” (Beth Israel Hospital Association, priority 1996, dated 1998), this text covers oxygen consumption for 1 compound.

Consider `CC(C)(C)NCC(O)COc1cccc2[nH]c(=O)[nH]c12` (stereo not shown) [CGP-12177], for which the oxygen consumption result was “decreased oxygen consumption”.
